# S100A4 inh HTS: blocks human S100A4 binding to myosin IIA peptide. inhibition, % at 10.7 µM. P26447. hit rate 0.14% among 360,000. AID 652163. S100A4/TAMRA-MyoIIA peptide fluorescence polarization;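 active = mean inhibition of at least 70% across replicates, with every replicate also reaching that level; inconclusive = mean inhibition reaches 70% but some replicates fall short; inactive = mean inhibition below 70%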
#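 Material: S100A4 monomer (human). Medium: Calcium-containing HEPES buffer, pH 7.2. Probe or stimulus: labelled myosin peptide probe, 5 nM. Compound dosing: one concentration per compound. Timing: polarization read 5 min after assay mix addition, stable 5–60 min. Benchmarks: DMSO as neutral control, TFP as positive control.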
# SIRT5 inh: sirtuin-5 (human) deacylase inhibition; Q9NXA8; Purified SirT5, succinyl-peptide AMC, trypsin-coupled fluorescence; inhibition, % at 15 µM; hit rate 1.1% among 330,000; AID 652115; in the data active = inhibition above about 15%; inconclusive = no clear call, values can overlap the other calls
# UUG fidelity: yeast start codon fidelity modulation | S. cerevisiae UUG-firefly luciferase reporter, luminescence/redox ratio | activity score, % at 18.7 µM | 0.13% of 350,000 active | AID 602363;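 active means replicate mean at a twofold rise or more, about +100% in these data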;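 further: firefly luciferase made from a UUG start codon reports start codon fidelity; reporter light over untreated wells divided by growth signal over untreated wells; some hits fall short of that in this replicate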
# ERp5 block: blocks human ERp5 reductase activity on insulin; Q15084; ERp5 insulin aggregation, absorbance 650 nm, 90 min; inhibition, % at 9.99 µM; hit rate 0.05% among 350,000; AID 651711;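 active = mean replicate inhibition above about 25%, with every replicate also reaching it, limit read from the data, passing the limit was not always enough; inconclusive = only one of those two criteria met; inactive = neither criterion met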
# FGF22 binding: binders of recombinant human FGF22 by thermal shift. Q9HCT0. SYPRO orange fluorescence; percent of sucrose octasulfate shift, DMSO zero. activity (Tm shift, normalised), % at 9.99 µM. hit rate 1.5% among 340,000. AID 651658;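 active = mean Tm shift, scaled 0 neutral to 100 positive control, at about 1.3% or above, every replicate too, limit read from the data; inconclusive = no clear call, values can overlap the other calls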
# PDI inh: inhibitors of human protein disulfide isomerase. P07237. PDI insulin aggregation turbidity, A650, 90 min. inhibition, % at 10 µM. hit rate 0.052% among 350,000. AID 588391;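 active = mean inhibition across replicates of 30% or more, whatever share of single replicates reach that level; inconclusive = mean inhibition below 30% while every single replicate reaches 30%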
# * hit, by the source's call; u = inconclusive; x = not tested or not shown. Only some compounds are listed: those with a hit (about 2.2% of all), similar ones and a draw of the others.
1: C[C@@H]1CN([C@@H](C)CO)C(=O)c2cc(C3=CCCC3)cnc2O[C@H]1CN(C)C(=O)Nc1ccccc1
2: CCOc1ncccc1C(=O)Nc1ccc(F)c(F)c1
3: CC(=O)Nc1cccc(NC(=O)c2cccc3cccnc23)c1
4: O=C(C[C@@H]1C[C@H]2c3cc(NS(=O)(=O)c4ccc(F)cc4)ccc3O[C@H]2[C@H](CO)O1)NCC1CC1
5: Cc1sc(NC(=O)CSc2n[nH]c(N)n2)c(C#N)c1C
6: COC(=O)c1c(NC(=O)CSc2n[nH]c(N)n2)sc(C)c1C
7: C=CCNC(=O)[C@@H]1[C@H]2C(=O)O[C@H](c3ccccc3)[C@H](c3ccccc3)N2[C@H](c2ccc(OCCO)cc2)[C@@]12C(=O)Nc1ccc(C#CCNC(N)=O)cc12
8: N#C/C(=C\c1cccnc1)C(=O)Nc1ccc(C(=O)O)cc1
9: N#C/C(=C\c1cccnc1)C(=O)Nc1ccccc1
10: C/C=C/c1ccccc1[C@H]1[C@@H](C#N)N(C(=O)CN2CCOCC2)[C@H]1CO

assay / entry	1	2	3	4	5	6	7	8	9	10
S100A4 inh HTS	12	1	-2	x	-8	x	1	2	x	-37
SIRT5 inh	0	-2	15*	x	16*	x	10	1	x	-4
UUG fidelity	x	x	-18	0	-31	-23	-2	x	14	x
ERp5 block	3	-1	-2	x	2	x	3	2	x	-4
FGF22 binding	0	43*	0	0	0	x	0	43*	x	x
PDI inh	x	4	1	x	7	0	x	-12	-7	x

11: CO[C@H]1CC[C@@H]2CCOc3c(C#N)cccc3C(=O)N(C)C[C@H](C)C(=O)N(C)C[C@@H]1O2
12: CNC[C@@H]1OCCCC[C@@H](C)Oc2ccc(NS(=O)(=O)c3ccc(OC)cc3)cc2C(=O)N([C@H](C)CO)C[C@H]1C
13: CC(O)[C@H]1CN=C(N)N1CC1CCCCC1 (stereo partly drawn)
14: CCNC(=O)C[C@@H]1CC[C@H](NC(=O)C2CCOCC2)[C@@H](CO)O1
15: CO[C@@H]1CN(C)C(=O)c2ccc(NC(=O)c3nc4ccccc4s3)cc2OC[C@H](C)NC[C@H]1C
16: CC(C)(C)c1ccc(-c2nc3[nH]c(=O)cc(NC(=O)c4ccco4)n3n2)cc1
17: O=C(NC[C@H]1CC[C@H]2[C@H](CN2C(=O)Cc2ccncc2)O1)C1CCOCC1
18: COc1ccc2c3c([nH]c2c1)[C@@H](CO)N(C(=O)Nc1ccc(F)cc1)CC31CCN(S(=O)(=O)c2cccc(F)c2)CC1
19: CCCn1nc(C(=O)Nc2nc3ccccc3[nH]2)c2ccccc2c1=O
20: CCCC#Cc1ccc2c(c1)[C@H]1[C@H](CCN1S(=O)(=O)c1ccc(C)cc1)[C@H](CO)N2C

assay / entry	11	12	13	14	15	16	17	18	19	20
S100A4 inh HTS	3	-17	-4	7	1	-1	-1	6	-2	-17
SIRT5 inh	20*	-4	16*	0	2	-7	0	3	3	1
UUG fidelity	x	-2	-7	-12	x	-18	x	x	-19	15
ERp5 block	-3	-1	-4	-12	-5	-3	-8	7	-4	-5
FGF22 binding	0	0	0	0	-1	14*	x	0	43*	0
PDI inh	x	x	-4	x	x	0	x	x	-2	x

21: O=C(c1ccco1)N1CCCN(Cc2nc(-c3cccs3)no2)CC1
22: O=C(C[C@@H]1C=C[C@@H](NS(=O)(=O)c2ccccc2)[C@H](CO)O1)NCc1ccncn1
23: C[C@@H]1CN([C@H](C)CO)C(=O)Cc2cc(NC(=O)Nc3cccc4ccccc34)ccc2O[C@@H]1CN(C)S(=O)(=O)c1ccc(F)cc1
24: COc1ccc(CC(=O)N2CCC(c3ccccc3)C2)cc1 (stereo not drawn)
25: CN(C)C(=O)C[C@H]1C=C[C@H](NC(=O)C2CC2)[C@@H](CO)O1
26: COc1cccc(CN2[C@H](CO)[C@@H](c3ccccc3)C23CN(Cc2ccccc2OC)C3)c1
27: CCCC(=O)N1CC2(C1)CN(C(=O)C1CCCCC1)[C@H](CO)c1[nH]c3cc(OC)ccc3c12
28: COc1ccc2c3c([nH]c2c1)[C@@H](CO)N(C(=O)C1CCCC1)CC31CN(C(=O)NC(C)C)C1

assay / entry	21	22	23	24	25	26	27	28
S100A4 inh HTS	0	2	-8	3	-11	-47	7	-7
SIRT5 inh	21*	-6	6	-3	-3	0	1	2
UUG fidelity	x	-9	-8	x	-8	x	x	x
ERp5 block	u	-1	13	-1	-3	-3	36*	-3
FGF22 binding	0	0	0	44*	0	0	0	0
PDI inh	6	x	x	0	x	x	x	x

# Whole records from above.
# O=C(C[C@@H]1C=C[C@@H](NS(=O)(=O)c2ccccc2)[C@H](CO)O1)NCc1ccncn1 as listed: S100A4 inh HTS: 2; SIRT5 inh: -6; UUG fidelity: -9; ERp5 block: -1; FGF22 binding: 0; PDI inh: x
# CN(C)C(=O)C[C@H]1C=C[C@H](NC(=O)C2CC2)[C@@H](CO)O1 as listed: S100A4 inh HTS: -11; SIRT5 inh: -3; UUG fidelity: -8; ERp5 block: -3; FGF22 binding: 0; PDI inh: x

# Compound activity (PubChem)
